Experimental data reported in article PMC6746264, “Novel tyrosinase inhibitory peptide with free radical scavenging ability” (Journal of Enzyme Inhibition and Medicinal Chemistry, 2019).

The chains behind the UniProt entries cited, without tags or fusion partners. Residues count along the entry.
UniProt C7FF04, 1-392: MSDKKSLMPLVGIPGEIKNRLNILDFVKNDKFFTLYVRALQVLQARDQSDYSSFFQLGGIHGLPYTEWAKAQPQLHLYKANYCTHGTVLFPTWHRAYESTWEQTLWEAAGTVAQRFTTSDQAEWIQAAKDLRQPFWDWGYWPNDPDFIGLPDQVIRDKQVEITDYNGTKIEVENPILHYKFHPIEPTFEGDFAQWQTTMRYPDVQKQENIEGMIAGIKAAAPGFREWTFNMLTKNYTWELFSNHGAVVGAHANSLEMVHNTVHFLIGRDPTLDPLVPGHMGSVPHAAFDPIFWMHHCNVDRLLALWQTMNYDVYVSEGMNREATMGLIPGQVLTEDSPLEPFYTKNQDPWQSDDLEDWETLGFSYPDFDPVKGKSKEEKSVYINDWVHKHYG

Target: mushroom tyrosinase (Agaricus bisporus, UniProt C7FF04)
Test: Comparison of tyrosinase inhibition rate (maximum reaction rate, IC50)
Type: biochemical
Conditions: in vitro, mushroom tyrosinase 100 U per well, tyrosine 2.5 mM, inhibitor preincubated 10 min, 37 °C, absorbance 475 nm over 2 h, maximum reaction rate (Vss)
Experimental: Figure 2. […] (D) The plot of the percentage of enzyme activity (Vss) vs the […] concentration [I]. IC50 of the inhibitors were directly obtained from the plots.
Before conducting the experiment, all the solutions, 96-well plates, and tips were heated at 37 °C. Equal volumes of tyrosine solutions (final concentration of 2.5 mM) were added to the 96-well plates, mixed with different concentrations of the inhibitors mentioned above and incubated for 10 min at 37 °C. Then, equal volume of the tyrosinase solution (100 U per well) was added to the 96-well plate using a multichannel pipette, which was placed immediately in a microplate reader under shaking conditions for 30 s. Finally, the light absorbance value at 475 nm was recorded at 37 °C continuously for 2 h with intervals of 20 s. The maximum reaction rate of tyrosinase at each concentration of the inhibitor was calculated.

## glutathione
  IC50: 1180 µM
